Key:
ferroportin [1] = biological target: T1, ferroportin (Homo sapiens, UniProt Q9NP59); test: T47D internalization assay in presence of mouse serum albumin; assay type: cell-based; parameters: a human breast carcinoma adherent cell line which endogenously expresses ferroportin; host or cells: T47D; conditions: Table 1D; T47D cells, 0.5% mouse serum albumin, 1 hr incubation; read-out: IC50: T47D MSA
T1 sequence (Q9NP59 1-571): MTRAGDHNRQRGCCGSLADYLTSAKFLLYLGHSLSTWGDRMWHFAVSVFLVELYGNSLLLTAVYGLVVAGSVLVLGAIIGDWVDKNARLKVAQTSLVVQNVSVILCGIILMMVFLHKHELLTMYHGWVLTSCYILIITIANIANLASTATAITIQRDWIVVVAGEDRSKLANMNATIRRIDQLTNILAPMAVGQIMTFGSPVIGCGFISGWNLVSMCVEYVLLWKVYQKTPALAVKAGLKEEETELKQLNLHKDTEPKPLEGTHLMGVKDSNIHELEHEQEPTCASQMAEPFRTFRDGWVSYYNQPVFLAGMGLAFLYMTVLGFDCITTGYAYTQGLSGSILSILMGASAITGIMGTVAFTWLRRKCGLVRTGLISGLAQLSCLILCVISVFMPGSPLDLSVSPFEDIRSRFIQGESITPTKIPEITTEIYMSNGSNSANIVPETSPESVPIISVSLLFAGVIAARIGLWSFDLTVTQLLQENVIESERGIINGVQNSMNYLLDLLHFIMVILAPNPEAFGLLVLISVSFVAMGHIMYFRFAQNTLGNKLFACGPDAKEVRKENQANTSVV
How it was run: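 T47D cells exposed 1 h to 10-point peptide dilutions (top ~5 μM) preincubated 30 min with 0.5% mouse serum albumin. Then 200 nM AF647-labelled ferroportin-binding detection peptide for 2 h. Flow cytometry MFI of live singlets, IC50 by 4-parameter fit.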

ferroportin [2] = biological target: T1, ferroportin; test: FPN internalization assay (FPN activity assay), loss of ferroportin-GFP fluorescence; assay type: cell-based; conditions: Table 1D; HEK293 cells stably expressing ferroportin-GFP, compound at least 18 hours; read-out: IC50: FPN

| Structure (SMILES) | IC50 (ferroportin [1]) | IC50 (ferroportin [2]) |
| --- | --- | --- |
| CCCCCCCCCCCCCCCC(=O)NCC[N+](C)(C)CC(=O)NCCOCCOCC(=O)NCCOCCOCC(=O)NCCCC[C@H](NC(=O)[C@@H]1CCCN1C(=O)[C@@H](NC(=O)[C@H](Cc1c[nH]cn1)NC(=O)[C@@H](NC(=O)[C@H](CCC(=O)O)NC(=O)CC(C)C)[C@@H](C)O)C(c1ccccc1)c1ccccc1)C(=O)NCCCc1ccccc1 [compound 108] | 0.0001 to 0.01 µM | > 0.5 µM |
| CCCCCCCCCCCCCCCC(=O)NCC[N+](C)(C)CC(=O)NCCOCCOCC(=O)NCCOCCOCC(=O)NCCCC[C@H](NC(=O)[C@@H]1CCCN1C(=O)[C@@H](NC(=O)[C@H](Cc1c[nH]cn1)NC(=O)[C@@H](NC[C@H](CCC(=O)O)NC(=O)CC(C)C)[C@@H](C)O)C(c1ccccc1)c1ccccc1)C(=O)NCCCCCc1ccccc1 [compound 109] | 0.0001 to 0.01 µM | > 0.5 µM |
| CCCCCCCCCCCCCCCC(=O)NCC[N+](C)(C)CC(=O)NCCOCCOCC(=O)NCCOCCOCC(=O)NCCCC[C@H](NC(=O)[C@@H]1CCCN1C(=O)[C@@H](NC(=O)[C@H](Cc1c[nH]cn1)NC(=O)[C@@H](NC(=O)[C@H](CCC(=O)O)N(C)C(=O)CC(C)C)[C@@H](C)O)C(c1ccccc1)c1ccccc1)C(=O)NCCCCCc1ccccc1 [compound 110] | 0.0001 to 0.01 µM | 0.001 to 0.03 µM |
| CCCCCCCCCCCCCCCC(=O)NCC[N+](C)(C)CC(=O)NCCOCCOCC(=O)NCCOCCOCC(=O)NCCCC[C@H](NC(=O)[C@@H]1CCCN1C(=O)[C@@H](NC(=O)[C@H](Cc1c[nH]cn1)NC(=O)[C@@H]1CCCN1C(=O)[C@H](CCC(=O)O)NC(=O)CC(C)C)C(c1ccccc1)c1ccccc1)C(=O)NCCCCCc1ccccc1 [compound 111] | 0.0001 to 0.01 µM | > 0.5 µM |
| CCCCCCCCCCCCCCCC(=O)NCC[N+](C)(C)CC(=O)NCCOCCOCC(=O)NCCOCCOCC(=O)NCCCC[C@@H](C(=O)NCCCCCc1ccccc1)N(C)C(=O)[C@@H]1CCCN1C(=O)[C@@H](NC(=O)[C@H](Cc1c[nH]cn1)NC(=O)[C@@H](NC(=O)[C@H](CCC(=O)O)NC(=O)CC(C)C)[C@@H](C)O)C(c1ccccc1)c1ccccc1 [compound 112] | 0.0001 to 0.01 µM | 0.001 to 0.03 µM |
| CCCCCCCCCCCCCCCC(=O)NCC[N+](C)(C)CC(=O)NCCOCCOCC(=O)NCCOCCOCC(=O)NCCCC[C@H](NC(=O)[C@@H]1C[C@@H]2CN1C(=O)[C@H](C(c1ccccc1)c1ccccc1)NC(=O)[C@H](Cc1c[nH]cn1)NC(=O)[C@H]([C@@H](C)O)NC(=O)[C@@H](NC(=O)CC(C)C)CCCC(=O)N2)C(=O)NCCCCCc1ccccc1 [compound 113] | 0.0001 to 0.01 µM | 0.001 to 0.03 µM |
| CCCCCCCCCCCCCCCC(=O)N[C@@H](CCC(=O)NCCOCCOCCOCCOCCC(=O)NCCCC[C@H](NC(=O)[C@@H]1CCCN1C(=O)[C@@H](NC(=O)[C@H](Cc1c[nH]cn1)NC(=O)[C@@H](NC(=O)[C@H](CCC(=O)O)NC(=O)CC(C)C)[C@@H](C)O)C(c1ccccc1)c1ccccc1)C(=O)NCCCCCc1ccccc1)C(=O)O [compound 114] | 0.01 to 0.1 µM | 0.001 to 0.03 µM |
| CCCCCCCCCCCCCCCC(=O)NCC[N+](C)(C)CC(=O)NCCOCCOCCOCCOCCC(=O)NCCCC[C@H](NC(=O)[C@@H]1CCCN1C(=O)[C@@H](NC(=O)[C@H](Cc1c[nH]cn1)NC(=O)[C@@H](NC(=O)[C@H](CCC(=O)O)NC(=O)CC(C)C)[C@@H](C)O)C(c1ccccc1)c1ccccc1)C(=O)NCCCCCc1ccccc1 [compound 116] | 0.0001 to 0.01 µM | 0.001 to 0.03 µM |
| CCCCCCCCCCCCCCCC(=O)NCCOCCOCCOCCOCCC(=O)NCCCC[C@H](NC(=O)[C@@H]1CCCN1C(=O)[C@@H](NC(=O)[C@H](Cc1c[nH]cn1)NC(=O)[C@@H](NC(=O)[C@H](CCC(=O)O)NC(=O)CC(C)C)[C@@H](C)O)C(c1ccccc1)c1ccccc1)C(=O)NCCCCCc1ccccc1 [compound 117] | 0.0001 to 0.01 µM | 0.001 to 0.03 µM |
| CCCCCCCCCCCCCCCC(=O)NCCOCCOCCOCCOCCOCCOCCOCCOCCC(=O)NCCCC[C@H](NC(=O)[C@@H]1CCCN1C(=O)[C@@H](NC(=O)[C@H](Cc1c[nH]cn1)NC(=O)[C@@H](NC(=O)[C@H](CCC(=O)O)NC(=O)CC(C)C)[C@@H](C)O)C(c1ccccc1)c1ccccc1)C(=O)NCCCCCc1ccccc1 [compound 118] | 0.0001 to 0.01 µM | 0.001 to 0.03 µM |
